# Data as given in patent US20170001956A1, “HYDROCARBYL CARBOXYBETAINE AND METHOD FOR PREVENTING HOFMANN ELIMINATION IN ALKALINE ENVIRONMENT” (NATIONAL CHUNG CHENG UNIVERSITY, priority 2015, published 2017).
# By UniProt entry, the sequences of proteins in these tests, tags left out. Residues count along the entry.
# UniProt P02769, 25-607: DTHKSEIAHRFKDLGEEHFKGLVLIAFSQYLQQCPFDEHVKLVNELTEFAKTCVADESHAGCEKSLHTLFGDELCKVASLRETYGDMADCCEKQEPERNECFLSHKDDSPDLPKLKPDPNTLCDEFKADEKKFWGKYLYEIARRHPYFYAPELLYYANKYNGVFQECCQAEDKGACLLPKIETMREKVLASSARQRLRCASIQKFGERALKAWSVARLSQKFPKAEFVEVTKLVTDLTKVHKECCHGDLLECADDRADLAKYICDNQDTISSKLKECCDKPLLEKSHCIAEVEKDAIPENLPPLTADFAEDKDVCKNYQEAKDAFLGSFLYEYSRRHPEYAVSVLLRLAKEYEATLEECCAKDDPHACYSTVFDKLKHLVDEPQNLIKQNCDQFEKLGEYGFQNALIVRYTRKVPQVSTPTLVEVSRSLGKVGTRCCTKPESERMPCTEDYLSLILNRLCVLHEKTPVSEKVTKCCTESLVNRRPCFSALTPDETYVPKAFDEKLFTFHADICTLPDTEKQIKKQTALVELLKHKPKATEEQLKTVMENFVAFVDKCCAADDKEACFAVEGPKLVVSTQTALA
# Tests used:
# [1] = molecular target: T1, bovine serum albumin (BSA) (Bos taurus, UniProt P02769); assay: Test 1: nonspecific adsorption resistance before and after 1M NaOH treatment, optical fiber bio-sensing system; details: self-assembled nano thin film on nano-gold optical fiber; 49 mg/ml BSA; PBS rinse; FIG. 3
# [2] = molecular target: T1, bovine serum albumin (BSA); assay: Test 2: protein adsorption test at different pH values, before and after 1M NaOH, optical fiber bio-sensing system
smiles,measurement,setting,value
"CC(C[N+](C)(C)CCSSCC[N+](C)(C)CC(C)C(=O)O)C(=O)O (stereo not drawn) [α-mCB, carboxy-alpha-methyl-betaine disulfide]",nonspecific adsorption resistance before and after the treatment of 1M NaOH solution,[1],no evident difference
same,nonspecific adsorption resistance in different pH values,"[2]; 49 mg/ml BSA, buffer of different pH, FIG. 4",excellent nonspecific adsorption resistance
same,Hofmann elimination,"[2]; self-assembled nano thin film, treatment with 1M NaOH",does not undergo Hofmann elimination
